For this test, the target named is human plasma kallikrein (human) (UniProt P03952). Kind of test: cell-based or functional assay.

In the case of aprotinin (from UniProt P00974 36-93), the specific activity in the standard inhibitory assay used for PEP-1 stood at 0.4 KIU/mg.

(Values after US20070249807A1.)
